Consider two compounds from ChEMBL document CHEMBL1146704, “(2-amino-phenyl)-amides of omega-substituted alkanoic acids as new histone deacetylase inhibitors” (Bioorg Med Chem Lett, 2004).

Amino acid sequences for entries named in this document (tags omitted).
UniProt Q13547, whole entry: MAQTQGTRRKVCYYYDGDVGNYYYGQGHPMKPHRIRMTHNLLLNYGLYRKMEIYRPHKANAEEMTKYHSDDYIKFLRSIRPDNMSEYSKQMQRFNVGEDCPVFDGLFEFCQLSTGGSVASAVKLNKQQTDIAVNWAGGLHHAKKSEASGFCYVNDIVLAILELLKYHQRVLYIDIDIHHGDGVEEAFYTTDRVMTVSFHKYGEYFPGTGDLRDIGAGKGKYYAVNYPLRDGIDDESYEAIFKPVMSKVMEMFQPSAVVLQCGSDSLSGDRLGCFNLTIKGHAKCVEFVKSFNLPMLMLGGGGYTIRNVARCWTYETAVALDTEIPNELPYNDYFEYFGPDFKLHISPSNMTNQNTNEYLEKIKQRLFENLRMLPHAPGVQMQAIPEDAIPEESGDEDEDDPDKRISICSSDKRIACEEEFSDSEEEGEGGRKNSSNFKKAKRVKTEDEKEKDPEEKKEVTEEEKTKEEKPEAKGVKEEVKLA

The term IC50 denotes the point on the concentration scale where inhibition reaches its midpoint. Higher therefore signals lower potency.

For the experiment, the target named is Histone deacetylase 1 (Homo sapiens, UniProt Q13547).

The compound `Nc1ccccc1NC(=O)CCCCCn1cnc2ccccc2c1=O` had an IC50 of 12 µM. Under `Nc1ccccc1NC(=O)CCCCCN1C(=O)c2cccc3cc(O)cc(c23)C1=O` stands 1 µM.
